The values below come from patent publication US20160272937A1, “METHODS OF GENERATING INTERMEDIATE MESODERM CELLS FROM HUMAN PLURIPOTENT STEM CELLS” (THE BRIGHAM AND WOMEN'S HOSPITAL, INC., priority 2013, published 2016).

The assay has as its system CHIR-induced hPSCs. Description: Growth factor screen for PAX2 induction in CHIR-induced mesendodermal cells (immunostaining). The format is cell-based, human. Particulars: CHIR 24 hours then low doses of factor, day 4. The procedure: For immunofluorescence studies, cultures are washed once with PBS (Invitrogen) and fixed in 4% paraformaldehyde for 15 min at room temperature (RT). Fixed cells are then washed three times in PBS and incubated in blocking buffer (0.3% Triton X-100 (Fisher Scientific) and 5% normal donkey serum (EMD Millipore) in PBS) for 1 hour at RT.
The cells are then incubated with primary antibody overnight at 4° C. or for 2 hours at RT in antibody dilution buffer (0.3% Triton X-100 and 1% BSA (Roche) in PBS). Cells are then washed three times in PBS and incubated with Alexa Fluor 488-, 555-, or 647-conjugated secondary antibodies (1:500) (Molecular Probes) in antibody dilution buffer for 1 hour at RT. For immunostaining with Biotinylated Lotus Tetragonolobus Lectin (LTL, Vector Labs), a Streptavidin/Biotin Blocking Kit (Vector Labs) and Alexa Fluor 488- or 647-conjugated Streptavidin (Molecular Probes) were used according to manufacturer's instructions.
Nuclei can be counterstained with DAPI (Sigma). A list of primary antibodies can be found in Table 1. Immunofluorescence is visualized using an inverted fluorescence microscope (Nikon Eclipse Ti, Tokyo, Japan). Quantification is performed by counting a minimum of five random fields at 10× magnification. […]

B1: BMP-2: candidate growth factor screened for PAX2 induction (protein, UniProt P12643 283-396, looked up)
Bone morphogenetic protein 2: QAKHKQRKRLKSSCKRHPLYVDFSDVGWNDWIVAPPGYHAFYCHGECPFPLADHLNSTNHAIVQTLVNSVNSKIPKACCVPTELSAISMLYLDENEKVVLKNYQDMVVEGCGCR
For the molecule B1, the “PAX2 expression compared to vehicle control” value is “modest increases”.
